These are literature values, as cited in patent publication US6372198B1, “Dentifrice for the mineralization and remineralization of teeth” (priority 2000, dated 2002).

This data set concerns dental caries. The conditions noted are these: incorporated in dentifrice formulations at a level of ca. 0.76%; clinical studies.

As to sodium monofluorophosphate, the “reduction of dental caries” value was 17-38%.
